Tests used:
Experiment in all cases: cell-based
human Kv1.3 channel = human Kv1.3 channel (Homo sapiens, UniProt P22001)
human Kv1.3 (CHO) = target: T1, human Kv1.3 (CHO) (Homo sapiens, UniProt P22001)
T1 construct: expressed in transfected cells; host or cells: CHO

Amino acid sequences for entries named in this document (tags omitted).
UniProt P22001, whole entry: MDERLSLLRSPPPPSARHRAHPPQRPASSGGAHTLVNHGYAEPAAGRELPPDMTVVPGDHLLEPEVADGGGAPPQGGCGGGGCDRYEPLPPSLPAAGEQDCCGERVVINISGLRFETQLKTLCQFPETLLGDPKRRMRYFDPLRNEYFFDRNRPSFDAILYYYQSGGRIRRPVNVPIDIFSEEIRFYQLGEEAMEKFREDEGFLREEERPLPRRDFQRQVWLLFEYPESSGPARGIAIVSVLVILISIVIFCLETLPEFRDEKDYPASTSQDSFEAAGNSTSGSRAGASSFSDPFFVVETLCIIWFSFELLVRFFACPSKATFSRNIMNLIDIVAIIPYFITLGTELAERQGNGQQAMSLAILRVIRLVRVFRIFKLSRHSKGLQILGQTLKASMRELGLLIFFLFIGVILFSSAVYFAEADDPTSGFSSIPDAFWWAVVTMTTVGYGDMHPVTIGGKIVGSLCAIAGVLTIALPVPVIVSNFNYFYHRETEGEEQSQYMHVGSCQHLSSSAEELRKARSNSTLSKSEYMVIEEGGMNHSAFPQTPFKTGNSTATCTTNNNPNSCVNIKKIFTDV
UniProt Q09470, whole entry: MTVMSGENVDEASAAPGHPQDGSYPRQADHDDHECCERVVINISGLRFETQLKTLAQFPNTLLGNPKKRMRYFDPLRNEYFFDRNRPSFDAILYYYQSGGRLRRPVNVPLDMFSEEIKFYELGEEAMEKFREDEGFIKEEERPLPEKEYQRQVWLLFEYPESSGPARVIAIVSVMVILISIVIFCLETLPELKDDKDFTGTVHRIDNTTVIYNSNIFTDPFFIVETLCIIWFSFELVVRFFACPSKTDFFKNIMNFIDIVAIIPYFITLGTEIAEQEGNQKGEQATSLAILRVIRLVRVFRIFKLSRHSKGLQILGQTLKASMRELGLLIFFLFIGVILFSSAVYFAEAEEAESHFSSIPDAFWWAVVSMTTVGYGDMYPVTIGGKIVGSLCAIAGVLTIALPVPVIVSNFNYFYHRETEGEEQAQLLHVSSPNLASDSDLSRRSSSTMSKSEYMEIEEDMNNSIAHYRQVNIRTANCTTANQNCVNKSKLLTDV

human Kv1.1 (HEK293) = target: T2, human Kv1.1 (HEK293) (Homo sapiens, UniProt Q09470)
T2 construct: expressed in transfected cells; host or cells: HEK293

human Kv1.1 = human Kv1.1 (Homo sapiens, UniProt Q09470); set-up: expressed in transfected cells; host or cells: HEK293

Which IC50 (human Kv1.3 channel) does the source give for `CC[C@H](C)[C@@H]1NC(=O)[C@H](CCCCN)NC(=O)[C@@H](NC(=O)[C@H](CCCCN)NC(=O)[C@@H](NC(=O)[C@H](CC(N)=O)NC(=O)[C@@H](NC(=O)[C@@H](NC(=O)[C@@H](NC(=O)CN)C(C)C)[C@@H](C)CC)[C@@H](C)CC)C(C)C)CSSC[C@@H]2NC(=O)[C@H](CCCCN)NC(=O)CNC(=O)[C@H](Cc3ccccc3)NC(=O)[C@H](CCCNC(=N)N)NC(=O)[C@H](CCSC)NC(=O)CNC(=O)[C@H](C)NC(=O)[C@H](CCCCN)NC(=O)[C@H](CCCCN)NC(=O)[C@@H]3CSSC[C@@H](C(=O)N[C@H](C(=O)N4CCC[C@H]4C(=O)N[C@@H](CCCCN)C(=O)O)[C@@H](C)O)NC(=O)[C@H](Cc4c[nH]cn4)NC(=O)[C@H](CSSC[C@H](NC(=O)[C@H](CCC(N)=O)NC(=O)[C@H](CCCNC(=N)N)NC(=O)[C@H](Cc4cccc5ccccc45)NC1=O)C(=O)N[C@@H](CC(C)C)C(=O)N[C@@H](CCC(=O)O)C(=O)N1CCC[C@H]1C(=O)N3)NC(=O)[C@H](CCCCN)NC(=O)CNC(=O)[C@H](CC(N)=O)NC(=O)[C@H](CCSC)NC2=O` [S11Nal] here?
The IC50 was 1.49 nM.

What about the IC50 (human Kv1.3 (CHO)) of the same compound?
Its IC50 is 0.0959 nM.

What about the IC50 (human Kv1.1 (HEK293)) of the same compound?
The IC50 was greater than 3.33 nM.

And the IC50 (human Kv1.1; Kv1.1 (IC50, pM))?
Its IC50 is 85300 pM.

With `CC[C@H](C)[C@@H]1NC(=O)[C@H](CCCCN)NC(=O)[C@@H](NC(=O)[C@H](CCCCN)NC(=O)[C@@H](NC(=O)[C@H](CC(N)=O)NC(=O)[C@@H](NC(=O)[C@@H](NC(=O)[C@@H](NC(=O)CN)C(C)C)[C@@H](C)CC)[C@@H](C)CC)C(C)C)CSSC[C@@H]2NC(=O)[C@H](CCCCN)NC(=O)CNC(=O)[C@H](Cc3ccccc3)NC(=O)[C@H](CCCNC(=N)N)NC(=O)[C@H](CCSC)NC(=O)CNC(=O)[C@H](C)NC(=O)[C@H](CCCCN)NC(=O)[C@H](CCCCN)NC(=O)[C@@H]3CSSC[C@@H](C(=O)N[C@H](C(=O)N4CCC[C@H]4C(=O)N[C@@H](CCCCN)C(=O)O)[C@@H](C)O)NC(=O)[C@H](Cc4c[nH]cn4)NC(=O)[C@H](CSSC[C@H](NC(=O)[C@H](CCC(N)=O)NC(=O)[C@H](CCCNC(=N)N)NC(=O)[C@H](CO)NC1=O)C(=O)N[C@@H](CC(C)C)C(=O)N[C@@H](CCC(=O)O)C(=O)N1CCC[C@H]1C(=O)N3)NC(=O)[C@H](CCCCN)NC(=O)CNC(=O)[C@H](CC(N)=O)NC(=O)[C@H](CCSC)NC2=O` [OSK1, reference compound] as the compound, how does the IC50 (human Kv1.1; hKv1.1: IC50) read?
Its IC50 is 160 pM.

How did the IC50 (human Kv1.1; Kv1.1 (IC50, pM)) turn out when `CC[C@H](C)[C@@H]1NC(=O)[C@H](CCCCN)NC(=O)[C@@H](NC(=O)[C@H](CCCCN)NC(=O)[C@@H](NC(=O)[C@H](CC(N)=O)NC(=O)[C@@H](NC(=O)[C@@H](NC(=O)[C@@H](NC(=O)CN)C(C)C)[C@@H](C)CC)[C@@H](C)CC)C(C)C)CSSC[C@@H]2NC(=O)[C@H](CCCCN)NC(=O)CNC(=O)[C@H](Cc3ccccc3)NC(=O)[C@H](CCCNC(=N)N)NC(=O)[C@H](CCSC)NC(=O)CNC(=O)[C@H](C)NC(=O)[C@H](CCCCN)NC(=O)[C@H](CCCCN)NC(=O)[C@@H]3CSSC[C@@H](C(=O)N[C@H](C(=O)N4CCC[C@H]4C(=O)N[C@@H](CCCCN)C(=O)O)[C@@H](C)O)NC(=O)[C@H](Cc4c[nH]cn4)NC(=O)[C@H](CSSC[C@H](NC(=O)[C@H](CCC(N)=O)NC(=O)[C@H](CCCNC(=N)N)NC(=O)[C@H](CO)NC1=O)C(=O)N[C@@H](CC(C)C)C(=O)N[C@@H](CCC(=O)O)C(=O)N1CCC[C@H]1C(=O)N3)NC(=O)[C@H](CCCCN)NC(=O)CNC(=O)[C@H](CC(N)=O)NC(=O)[C@H](CCSC)NC2=O` [wild-type] was run?
The IC50 was 202 pM.
